Results as given in US10759777B2, “Carbazole-containing amides, carbamates, and ureas as cryptochrome modulators” (Synchronicity Pharma, Inc., priority 2014, dated 2020).
Read-outs that look alike come from different tables or passages of the source.

Legend:
[1] = tested on: db/db mouse model of type II diabetes
[2] = tested on: core clock genes Per2, Bmal1, Cry2 in liver; assay: Four day study, liver core clock gene mRNA in ICR mice; type: in vivo, mouse; details: 50 mg/kg PO BID 4 days
Method: Male ICR mice (weighing 30-35 g), obtained from Charles River Laboratories (Hollister, Calif.), were used for the experiment following at least 3 days of acclimation. Mice were dosed with vehicle (WFI or 10% Kolliphor) or compound (50 mg/kg, dose volume 5 mL/kg, PO) for 4 days BID (twice a day), beginning in the afternoon of the first day. The last dose of compound or vehicle was administered on the morning of harvest. On the day of harvest (6 hours following the final dose), mice were euthanized by CO2 asphyxiation and 50 mg of liver tissue was excised and placed in a tube containing 500 μl of RNA later.
E.Z.N.A.® HP Total RNA Isolation Kits (R6812-01 and the protocol described in the Manual, Revised 2010) were utilized to prepare and isolate RNA from the liver samples. To prepare the RNA samples, 10-30 mg of sample was removed from RNA-Later and placed in a 1.5 ml microfuge tube. GTC lysis buffer (700 μl) was added to the tissue, which was homogenized with a rotor-stator homogenizer (e.g. Tissue-Tearor, Model #985370 BioSpec Products with 4.5 mm probe, Cat. #985370-04), and then centrifuged at full speed (≥13,000×g) for 5 minutes. The cleared supernatant was transferred by pipetting to a DNA Clearance Column Pre-inserted in a 2 mL Collection Tube. The assembled column was centrifuged at 13,000×g for 1 minute, and the flow-through was saved. An equal volume (700 μl) of 70% ethanol was added to the lysate and mixed. The sample was then applied to a HiBind RNA spin column placed into a 2 ml collection tube, which was centrifuged at 10,000×g for 60 seconds at room temperature. […]
RediPlate 96 RiboGreen RNA Quantification Kit (Invitrogen) RediPlate standard curve was prepared by transferring 20 l reconstituted RNA standard to a RediPlate well reconstituted in 180 l RediPlate TE buffer. […] After transferring 5 l to RediPlate well reconstituted in 195 l TE buffer and incubating 10 min. at RT, Fluorescence Intensity of wells with standards and samples were read in a Tecan M200 with Excitation set at 480 nm and Emission set at 520 nm with the gain set to ˜70%. […]

C57/Bl6J DIO mice [3] = assay: Compound 72 in diet-induced obesity (DIO) mouse model; type: in vivo; details: 30 mg/kg PO QD 7 days
Excerpt: (§1) Male C57/Bl6J DIO mice were obtained from The Jackson Laboratory (Sacramento, Calif.). […] Animals were accustomed to these conditions for at least 2 weeks before experimentation and used at approximately 24 weeks of age.
(§2) Significance was accepted when p<0.05.

C57/Bl6J DIO mice [4] = assay: Increasing dosages of Compound 72 in diet-induced obesity (DIO) mouse model; type: in vivo; details: 30 mg/kg PO QD 7 days
Excerpt: as §1, §2
Male C57/Bl6J DIO mice were obtained from The Jackson Laboratory (Sacramento, Calif.). […] Animals were accustomed to these conditions for at least 2 weeks before experimentation and used at approximately 26 weeks of age.

## O=C1C(F)CCN1CC(O)Cn1c2ccc(F)cc2c2cc(F)ccc21 (stereo not shown) [Compound 9, 1-(3-(3,6-difluoro-9H-carbazol-9-yl)-2-hydroxypropyl)-3-fluoropyrrolidin-2-one]
[1]; 30 mg/kg
  liver exposure below the Per2 EC50 value: around 1.6 fold
  reduction of glucose AUC from vehicle: 21%
[1]; 30 mg/kg PO QD 7 days
  glucose AUC from OGTT: 44442+/−3895 units
[1]; 100 mg/kg
  liver exposure higher than the Per2 EC50 value: 2.2 fold
  reduction of HOMA-IR compared to vehicle: 60%
  reduction of glucose AUC from vehicle: 40%
[1]; 100 mg/kg PO QD 7 days
  glucose AUC from OGTT: 33643+/−4822 units
[1]; 300 mg/kg
  reduction of glucose AUC from vehicle: 40%
[1]; 300 mg/kg PO QD 7 days
  glucose AUC from OGTT: 33650+/−4688 units
[1]; 30 and 100 mg/kg, no increased effect at 300 mg/kg
  glucose levels during the OGTT: dose dependent reduction
[2]; ZT6
  liver Per2 expression: suppression
[2]; liver
  Cry2 transcripts: decrease
  increase in Bmal1 mRNA at ZT6: 4 fold

## CN(CCOc1ccc(CC2SC(=O)NC2=O)cc1)c1ccccn1 (stereo not shown) [Rosiglitazone, reference compound]
[1]; 30 mg/kg PO QD 7 days
  glucose AUC from OGTT: 11502+/−2118 units
C57/Bl6J DIO mice [3]
  glucose AUC from OGTT: 11500+/−1104 units
C57/Bl6J DIO mice [4]
  glucose AUC from OGTT: 9858+/−1281 units
